Amino acid sequences for entries named in this document (tags omitted).
UniProt Q96P20, whole entry: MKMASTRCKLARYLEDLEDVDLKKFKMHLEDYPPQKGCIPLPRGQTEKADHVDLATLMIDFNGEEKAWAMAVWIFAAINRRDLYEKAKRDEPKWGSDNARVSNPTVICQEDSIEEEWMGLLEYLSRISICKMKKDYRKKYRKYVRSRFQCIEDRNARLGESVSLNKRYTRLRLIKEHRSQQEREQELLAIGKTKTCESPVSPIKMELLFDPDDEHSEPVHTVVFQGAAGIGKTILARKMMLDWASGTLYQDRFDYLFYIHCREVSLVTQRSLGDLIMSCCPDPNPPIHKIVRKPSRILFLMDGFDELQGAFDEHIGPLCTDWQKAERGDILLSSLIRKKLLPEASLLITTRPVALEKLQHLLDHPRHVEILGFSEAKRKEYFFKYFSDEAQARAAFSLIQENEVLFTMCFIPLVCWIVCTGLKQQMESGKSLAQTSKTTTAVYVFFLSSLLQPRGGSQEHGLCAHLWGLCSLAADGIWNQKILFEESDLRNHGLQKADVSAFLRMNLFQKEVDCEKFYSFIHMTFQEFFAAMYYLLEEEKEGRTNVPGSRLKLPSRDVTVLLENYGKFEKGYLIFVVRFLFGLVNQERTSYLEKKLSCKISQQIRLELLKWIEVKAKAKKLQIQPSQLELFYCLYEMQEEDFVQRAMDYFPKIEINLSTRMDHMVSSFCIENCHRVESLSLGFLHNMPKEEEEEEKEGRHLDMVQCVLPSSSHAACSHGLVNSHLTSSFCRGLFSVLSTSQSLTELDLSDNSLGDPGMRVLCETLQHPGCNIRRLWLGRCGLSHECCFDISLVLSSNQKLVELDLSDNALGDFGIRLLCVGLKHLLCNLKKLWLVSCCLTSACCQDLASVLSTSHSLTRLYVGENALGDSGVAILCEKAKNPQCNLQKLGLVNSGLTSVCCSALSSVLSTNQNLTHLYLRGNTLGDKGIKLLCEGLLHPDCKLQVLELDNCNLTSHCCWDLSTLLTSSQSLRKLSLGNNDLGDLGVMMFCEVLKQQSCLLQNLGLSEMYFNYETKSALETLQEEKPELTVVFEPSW

For this test, the target named is NLRP3 inflammasome (Homo sapiens (Human), UniProt Q96P20). Description: Evaluation of NLRP3 inflammasome inhibitory activity (inhibition of IL-1β production in THP1-Null cells, LPS/Nigericin).
`CCCS(=O)(=O)N1CCCN(S(=O)(=O)NC(=O)c2coc(Nc3c(C)ccc(C)c3C)n2)CC1` registered an IC50 of 89 nM. The figure for `CCS(=O)(=O)C1CCCN(S(=O)(=O)NC(=O)c2coc(Nc3cc(C(F)(F)F)ccc3C)n2)CC1` (racemic) is 26 nM.

The compound `Cc1nnc(C2(C)CCN(S(=O)(=O)NC(=O)c3coc(Nc4cc(C(F)(F)F)ccc4C)n3)CC2)o1` yielded a half-inhibitory concentration (IC50) of 720 nM. Then `CCC(=O)N(C)C1COCCN(S(=O)(=O)NC(=O)c2coc(Nc3cc(C(F)(F)F)ccc3C)n2)C1` (racemic), with 110 nM; and `Cc1nn(C(C)C)c(C)c1Nc1nc(C(=O)NS(=O)(=O)N2CCCOCC2)co1`, with 2700 nM.

The compound `COC[C@@H]1CCN(S(=O)(=O)NC(=O)c2coc(Nc3cc(C(F)(F)F)ccc3C)n2)CCO1` came in with an IC50 of 17 nM. For `COc1ccnc(N2CCCN(S(=O)(=O)NC(=O)c3coc(Nc4cc(C(F)(F)F)ccc4C)n3)CC2)n1`, the IC50 was 48 nM.

For the origin of these results see patent US20230399319A1, “Acylsulfamide Compound and Pharmaceutical Use Therefor” (Japan Tobacco Inc., priority 2019, published 2023).
